Experimental findings from PubChem BioAssay (NCI) are described below.

The test can be described thus: NCI Yeast Anticancer Drug Screen. Data for the CLN2oe strain (AID 163).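 Note: 0% = growth of vehicle-only control cultures.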 The conditions noted are these: S. cerevisiae CLN2oe strain, stronger effect = higher value. As for the experimental part: Growth inhibition of yeast strains with defined genetic alterations is measured as a screen for potential anti-cancer activity. Selected strains with alterations in DNA damage repair or cell cycle control were exposed to compounds and growth inhibition was measured relative to vehicle treated controls. The strain used in this assay is CLN2oe

The entries are a selection whose mix differs from that of the whole data set. Some salts and complexes are drawn in separate pieces, as the source files them; their charges need not balance. More than one record can exist for a structure, and the calls need not agree. Activity calls are given as the source filed them. Cut-off read from the data, not from the text of the source: active = growth inhibition above about 70%; inactive = the rest.

On to `Cc1cc2ccccc2cc1C.O=[N+]([O-])c1cc([N+](=O)[O-])cc([N+](=O)[O-])c1`, for which the growth inhibition was inactive: -3% (at 1.2 µM); inactive: -12% (at 3.7 µM); inactive: -1% (at 11.0 µM); inactive: 10% (at 33.0 µM); inactive: 61% (at 100.0 µM).
Take `[Au].[C-]#N.[C-]#N`: the growth inhibition runs as follows: (at 1.2 µM) inactive: -14%; (at 3.7 µM) inactive: -13%; (at 11.0 µM) inactive: -18%; (at 33.0 µM) inactive: 8%; (at 100.0 µM) inactive: 24%.
For `Cc1c2ccccc2cc2ccccc12.O=[N+]([O-])c1cc([N+](=O)[O-])c(O)c([N+](=O)[O-])c1`, the growth inhibition by setting is: (at 1.2 µM) inactive: -4%; (at 3.7 µM) inactive: -2%; (at 11.0 µM) inactive: 6%; (at 33.0 µM) inactive: 10%; (at 100.0 µM) active: 86%.
Consider `COc1ccccc1N.O=[N+]([O-])c1cc([N+](=O)[O-])cc([N+](=O)[O-])c1`, for which the growth inhibition is, setting by setting: (at 1.2 µM) inactive: -3%; (at 3.7 µM) inactive: 2%; (at 11.0 µM) inactive: 18%; (at 33.0 µM) active: 99%; (at 100.0 µM) active: 99%.
On to `[Au+].[N-]=[N+]=N.c1ccc([PH+](c2ccccc2)c2ccccc2)cc1`, for which the growth inhibition is inactive: -1% (at 1.2 µM), active: 90% (at 3.7 µM), active: 95% (at 33.0 µM) and active: 90% (at 100.0 µM).
Turning to `Nc1ccccc1.O=[N+]([O-])c1cc([N+](=O)[O-])cc([N+](=O)[O-])c1`, the growth inhibition reads like this: (at 1.2 µM) inactive: -1%; (at 3.7 µM) inactive: -1%; (at 11.0 µM) inactive: 14%; (at 33.0 µM) active: 99%; (at 100.0 µM) active: 99%.
With `Cc1ccc2ccc3ccc4ccccc4c3c2c1.O=C1c2cc([N+](=O)[O-])ccc2-c2c1cc([N+](=O)[O-])cc2[N+](=O)[O-]`, the growth inhibition is inactive: -3% (at 1.2 µM); inactive: -1% (at 3.7 µM); inactive: -3% (at 11.0 µM); inactive: 5% (at 33.0 µM); inactive: 1% (at 100.0 µM).
Regarding `O=[N+]([O-])C(F)(COCC(O)CO)[N+](=O)[O-]` (centres undefined), the growth inhibition runs as follows: (at 1.2 µM) inactive: 22%; (at 3.7 µM) inactive: 12%; (at 11.0 µM) inactive: 15%; (at 33.0 µM) inactive: 48%; (at 100.0 µM) active: 88%.
For `[Au+].[Au+].c1ccc([PH+](c2ccccc2)c2ccccc2)cc1.c1ccc([PH+](c2ccccc2)c2ccccc2)cc1.n1n[n-]c(-c2nnn[n-]2)n1`, the growth inhibition is, setting by setting: (at 1.2 µM) inactive: -8%; (at 3.7 µM) inactive: 15%; (at 11.0 µM) active: 97%; (at 33.0 µM) active: 98%; (at 100.0 µM) active: 98%.
